Results from ChEMBL document CHEMBL1128305, “Metabotropic glutamate receptors: novel targets for drug development” (J Med Chem, 1995).
“And” between values parts separate entries of the source, which are not always exact repeats. Identical values can stand only once.

Sequences of proteins named here, by UniProt entry; tags and fusion partners are left off. A change or cut given only in a name is not applied to a line headed by its entry.
UniProt P23385: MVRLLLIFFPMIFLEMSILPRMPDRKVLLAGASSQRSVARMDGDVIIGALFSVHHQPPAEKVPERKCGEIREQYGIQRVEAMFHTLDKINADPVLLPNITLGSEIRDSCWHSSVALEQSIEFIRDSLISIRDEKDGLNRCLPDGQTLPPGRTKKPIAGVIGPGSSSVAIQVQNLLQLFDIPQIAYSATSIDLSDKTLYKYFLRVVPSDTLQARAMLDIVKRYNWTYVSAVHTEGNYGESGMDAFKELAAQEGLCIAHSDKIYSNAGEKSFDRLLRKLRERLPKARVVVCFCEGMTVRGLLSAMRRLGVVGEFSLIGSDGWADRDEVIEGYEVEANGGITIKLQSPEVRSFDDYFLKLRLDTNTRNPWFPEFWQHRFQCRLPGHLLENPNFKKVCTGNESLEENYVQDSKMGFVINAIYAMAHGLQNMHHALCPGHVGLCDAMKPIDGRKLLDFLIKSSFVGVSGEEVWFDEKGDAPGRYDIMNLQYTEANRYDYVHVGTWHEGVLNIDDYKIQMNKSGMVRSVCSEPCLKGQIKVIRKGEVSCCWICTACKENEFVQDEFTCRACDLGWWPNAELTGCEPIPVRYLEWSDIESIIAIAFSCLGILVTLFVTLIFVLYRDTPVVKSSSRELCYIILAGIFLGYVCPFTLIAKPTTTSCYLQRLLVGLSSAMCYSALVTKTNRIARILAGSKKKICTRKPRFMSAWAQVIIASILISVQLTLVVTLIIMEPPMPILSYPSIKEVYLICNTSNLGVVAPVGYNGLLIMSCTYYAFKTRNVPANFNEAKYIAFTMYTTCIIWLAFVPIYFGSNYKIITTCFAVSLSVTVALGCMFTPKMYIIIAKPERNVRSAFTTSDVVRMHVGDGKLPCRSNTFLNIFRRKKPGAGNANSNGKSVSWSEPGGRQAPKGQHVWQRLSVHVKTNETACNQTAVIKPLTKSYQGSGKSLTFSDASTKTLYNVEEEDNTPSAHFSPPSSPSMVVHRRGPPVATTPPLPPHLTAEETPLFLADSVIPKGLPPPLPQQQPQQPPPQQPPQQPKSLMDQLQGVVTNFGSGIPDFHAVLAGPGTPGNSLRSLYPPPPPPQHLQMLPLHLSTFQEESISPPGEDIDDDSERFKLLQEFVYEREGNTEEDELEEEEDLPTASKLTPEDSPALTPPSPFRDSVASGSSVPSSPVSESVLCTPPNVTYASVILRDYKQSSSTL

Experiments:
[1] = biological target: T1, Metabotropic glutamate receptor 1 (Rattus norvegicus, UniProt P23385); experiment: Concentration for half maximal activation of metabotropic glutamate mGluR1a in rat
[2] = biological target: T1, Metabotropic glutamate receptor 1; experiment: Concentration for half maximal activation of metabotropic glutamate mGluR1b in rat
[3] = biological target: T1, Metabotropic glutamate receptor 1; experiment: Concentration for half maximal activation of metabotropic glutamate mGluR1c in rat

Which results are given for `N[C@@H](Cn1oc(=O)[nH]c1=O)C(=O)O` [QUISQUALATE]?
EC50 [1]: 200 nM and 700 nM; EC50 [2]: 2500 nM; EC50 [3]: 750 nM
